Test results from ChEMBL document CHEMBL4340580, “Antibacterial and Inhibitory Activities against Nitric Oxide Production of Coumaronochromones and Prenylated Isoflavones from Millettia extensa” (J Nat Prod, 2019).

Experiments:
Format in all cases: functional
Salmonella typhimurium = assay: Antibacterial activity against Salmonella typhimurium by CLSI protocol based method; conditions: Salmonella enterica subsp. enterica serovar Typhimurium
Pseudomonas aeruginosa = assay: Antibacterial activity against Pseudomonas aeruginosa by CLSI protocol based method
Method in brief: (§1)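 Strains came from the Microbiological Resources Center, Bangkok, Thailand. Antibacterial testing followed Clinical and Laboratory Standards Institute recommendations.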

Shigella flexneri = assay: Antibacterial activity against Shigella flexneri by CLSI protocol based method; method in brief: as §1

Measured: MIC

GENTAMICIN
0.5 µg/mL: Salmonella typhimurium | Pseudomonas aeruginosa | Shigella flexneri
